From PubChem BioAssay
The list is not random: actives were taken first. Their share in the collection is about 16%.
TDP1 block – TDP1 (human) enzyme inhibition; 0.28% of 350,000 active; Q9NUW8; recombinant TDP1, AlphaScreen DNA substrate cleavage; AID 485290; Potency, µM (doses to about 130 µM), most hits filed as inhibitors; further: nearly all actives have a fitted effect of over 40% in size
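Signal: AlphaScreen proximity between streptavidin donor and anti-FITC acceptor beads on intact substrate. Reaction: Tdp1 1 nM, substrate 15 nM final, 5 min RT after 15 min compound preincubation.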
DT40 TDP1 no CPT – qHTS for Inhibitors of human tyrosyl-DNA phosphodiesterase 1 (TDP1): qHTS in cells in absence of CPT | DT40 Tdp1-/- hTDP1 cells, no CPT, ATP luminescence, 48 h | Potency, µM (highest dose often 46.2 µM), hits mostly inhibitors | 15% of 420,000 active; further: nearly all actives have a fitted effect of over 55% in size
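Chicken DT40 Tdp1-/- cells stably complemented with human TDP1 were seeded at 400 cells/well with DMSO in place of 20 nM camptothecin. After compound pinning, cells grew at least 48 hr at 37 °C; viability read by CellTiter-Glo luminescence.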
DT40 TDP1 CPT – DT40-hTDP1 cell growth loss with CPT. chicken DT40 Tdp1-/-;hTDP1 cells + 20 nM CPT, ATP luminescence, 48 h. Potency, µM (doses to about 46.2 µM), hits mostly inhibitors. 12% of 420,000 active. AID 686979; further: nearly all actives have a fitted effect of over 55% in size
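Cell growth measured by CellTiter-Glo luminescence after a minimum 48 h, 37 C compound exposure with 20 nM CPT in Tdp1-knockout DT40 cells stably expressing hTDP1, seeded 400/well; qHTS titration format.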
miR-21 reporter – miR-21 reporter, rising signal. HeLa miR-21 FLuc reporter, luciferase, 48 h. Potency, µM (highest dose often 38.3 µM). 340,000 tested, under 10 active. AID 2288; active = well fitted rising curve with a large enough effect; inconclusive = small, poorly fitted or top-dose-only effect; inactive = no such curve, though single readings can be large or run the other way;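 further: miR-21 action dims this reporter so a rising signal means less miR-21 action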
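Luminescence from a firefly luciferase reporter carrying a miR-21 binding site downstream, stably expressed under a CMV promoter in HeLa cells that make miR-21 endogenously, reports miRNA modulation after 48 h compound exposure up to approximately 40uM final.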
uPA generation – inhibitors of cell surface uPA generation | cell surface uPA generation assay, qHTS | Potency, µM (top dose mostly 38.3 µM), actives largely listed as inhibitors | 0.31% of 330,000 active; active means well fitted inhibition curve with a large enough effect; inconclusive means small, poorly fitted or top-dose-only effect; inactive means no such curve, though single readings can be large or run the other way; tested in mouse RAW 264.7 cells; further: nearly all actives have a fitted effect of over 55% in size
Numbers stand for hits; ! = not confirmed by another sample; [ ] = dose if it differs, or a comment. Unless noted, the call rests on the fitted dose curve; in most records, active means well fitted curve in the direction sought with a large enough effect; inconclusive means small, poorly fitted or top-dose-only effect, or another doubt; inactive means no such curve, though single readings can be large; an effect the other way counts as inactive or inconclusive.

Results for O=C(NCc1nc2ccccc2[nH]1)C1=C[C@H](C2CC2)C[C@H](OCCCCO)O1 ?
TDP1 block: inactive; DT40 TDP1 no CPT: inactive; DT40 TDP1 CPT: inactive; miR-21 reporter: inactive; uPA generation: inactive

What do the screens show for `O=C(NCc1nc2ccccc2[nH]1)C1=C[C@H](C2CCCCC2)C[C@H](OCc2ccc(CO)cc2)O1`?
TDP1 block: inactive; DT40 TDP1 no CPT: 16.4µM; DT40 TDP1 CPT: 11.6µM; miR-21 reporter: inactive; uPA generation: inconclusive

How did O=C(NCc1nc2ccccc2[nH]1)C1=C[C@H](C2CCCCC2)C[C@H](OCCCCO)O1 do in these assays?
DT40 TDP1 no CPT: 16.4µM; DT40 TDP1 CPT: 23.1µM; uPA generation: inactive

How did COC(=O)C1OC(=O)C2OC23[C@]2(C)C(OC(C)=O)CC4C(C)(C)C(=O)CC[C@]4(C)C2CC[C@@]13C (stereo partly drawn) do in these assays?
TDP1 block: inactive; DT40 TDP1 no CPT: inactive; DT40 TDP1 CPT: inactive

Results for CCOC(=O)C1CCCCN1Cc1ccc(OC)c(OC)c1 (stereo not drawn) ?
TDP1 block: inactive; DT40 TDP1 no CPT: inconclusive; DT40 TDP1 CPT: inactive; miR-21 reporter: inactive; uPA generation: inactive

What do the screens show for `CCCN[C@H]1CCc2nc(N)sc2C1`?
DT40 TDP1 no CPT: 16.8µM!; DT40 TDP1 CPT: inconclusive; uPA generation: inactive

What do the screens show for `O=C1CCC[C@@H]2Cc3nc4cc5c(cc4cc3[C@@H]3CCN1[C@H]23)OCO5`?
DT40 TDP1 no CPT: 15.8µM; DT40 TDP1 CPT: 18.4µM; uPA generation: inconclusive

What do the screens show for `NC1=NC[C@H](Cc2ccc(O)cc2)N1CCCCC1CCCCC1`?
TDP1 block: inactive; DT40 TDP1 no CPT: 2.59µM; DT40 TDP1 CPT: 4.61µM; miR-21 reporter: inconclusive; uPA generation: inactive

Results for Fc1cccc(CCN2CCNC[C@@H]2Cc2ccccc2)c1 ?
DT40 TDP1 no CPT: inconclusive; DT40 TDP1 CPT: inconclusive; uPA generation: inactive

Results for NC1=NC[C@H](Cc2ccccc2)N1CCc1cccc(F)c1 ?
TDP1 block: inactive; DT40 TDP1 no CPT: 11.6µM; DT40 TDP1 CPT: 13µM; miR-21 reporter: inactive; uPA generation: inactive

What do the screens show for `CC(C)C[C@@H]1CN=C(N)N1C[C@@H]1CCCN1C[C@@H](C(C)C)N1C[C@@H](Cc2ccccc2)N(CCCC2CCCC2)C1=N`?
TDP1 block: inactive; DT40 TDP1 no CPT: inconclusive; DT40 TDP1 CPT: inconclusive; uPA generation: inactive

Results for NC1=NC[C@H](Cc2ccccc2)N1CCCCC1CCCCC1 ?
TDP1 block: inactive; DT40 TDP1 no CPT: 5.17µM; DT40 TDP1 CPT: 5.17µM; miR-21 reporter: inconclusive; uPA generation: inconclusive

Results for Cn1c(=O)c([N+](=O)[O-])c(N2CCSCC2)c2ccccc21 ?
TDP1 block: inactive; DT40 TDP1 no CPT: inconclusive; DT40 TDP1 CPT: inconclusive; miR-21 reporter: inactive; uPA generation: inactive

How did CCn1c(=O)c([N+](=O)[O-])c(N2CCSCC2)c2ccccc21 do in these assays?
TDP1 block: inactive; DT40 TDP1 no CPT: 23.1µM; DT40 TDP1 CPT: inconclusive; miR-21 reporter: inactive; uPA generation: inactive

Results for CC1(C(=O)Nc2ccc3c(c2)OCO3)CCN1C(=O)c1ccccc1 (stereo not drawn) ?
DT40 TDP1 no CPT: inactive; DT40 TDP1 CPT: inactive

How did CC1(C(=O)Nc2ccc3c(c2)OCCO3)CCN1C(=O)c1ccccc1CCc1ccccc1 (stereo not drawn) do in these assays?
DT40 TDP1 no CPT: inconclusive; DT40 TDP1 CPT: 29.1µM

Results for CC(C)(C)c1ccc(C(=O)N2CCC2(C)C(=O)Nc2cccc(C#N)c2)cc1 (stereo not drawn) ?
DT40 TDP1 no CPT: 16.4µM; DT40 TDP1 CPT: 16.4µM

Results for CC1(C(=O)Nc2cccc(C#N)c2)CCN1C(=O)c1ccccc1CCc1ccccc1 (stereo not drawn) ?
DT40 TDP1 no CPT: 23.1µM; DT40 TDP1 CPT: inconclusive

What do the screens show for `CC1(C(=O)Nc2ccc3c(c2)OCCO3)CCN1C(=O)c1ccco1` (stereo not drawn)?
DT40 TDP1 no CPT: inactive; DT40 TDP1 CPT: inactive

How did CC(=O)N/C(=C\c1ccccc1)C(=O)OC(C)C(=O)Nc1ccccc1F (stereo not drawn) do in these assays?
TDP1 block: inactive; DT40 TDP1 no CPT: inactive; DT40 TDP1 CPT: inactive; uPA generation: inactive

What do the screens show for `CC(C)=CCC1=C(O)c2ccccc2C(=O)C1=O`?
TDP1 block: inactive; DT40 TDP1 no CPT: inconclusive; DT40 TDP1 CPT: inconclusive

What do the screens show for `CCC(=O)N(CC)C1=C(O)c2ccccc2C(=O)C1=O`?
TDP1 block: inactive; DT40 TDP1 no CPT: 8.2µM; DT40 TDP1 CPT: 4.61µM; miR-21 reporter: inactive; uPA generation: inactive

How did CCCC(=O)NCc1nc2ccccc2n1CC(=O)c1ccccc1 do in these assays?
DT40 TDP1 no CPT: inactive; DT40 TDP1 CPT: inactive; miR-21 reporter: inactive; uPA generation: inactive

How did CCCCCCCC#Cc1ccccc1/C=N/S(=O)c1ccc(C)cc1 (stereo not drawn) do in these assays?
TDP1 block: inactive[21 µM]; DT40 TDP1 no CPT: 18.4µM; DT40 TDP1 CPT: 11.6µM; miR-21 reporter: inactive; uPA generation: inconclusive

Results for O=C(COC(=O)CNC(=O)c1ccccc1)Nc1ccc(Cl)cn1 ?
TDP1 block: inactive; DT40 TDP1 no CPT: inactive; DT40 TDP1 CPT: inactive; uPA generation: inactive

What do the screens show for `O=C(c1cc(S(=O)(=O)N2CCOCC2)ccc1F)N1CCc2ccccc21`?
TDP1 block: inactive; DT40 TDP1 no CPT: inconclusive; DT40 TDP1 CPT: inconclusive; uPA generation: inactive

What do the screens show for `CCOC(=O)c1ccc(NC(=S)NNC(C)(C)C)cc1`?
DT40 TDP1 no CPT: 5.8µM; DT40 TDP1 CPT: 5.8µM; miR-21 reporter: inactive; uPA generation: inactive

How did O=C(COc1ccc(/C=N/NC(=O)c2cccnc2)cc1)Nc1ccccc1 do in these assays?
TDP1 block: inactive; DT40 TDP1 no CPT: inactive; DT40 TDP1 CPT: inactive; miR-21 reporter: inactive; uPA generation: inactive

What do the screens show for `Cc1csc2c(N3CCN(S(=O)(=O)c4ccc(Cl)cc4)CC3)ncnc12`?
TDP1 block: inactive; DT40 TDP1 no CPT: 23.1µM; DT40 TDP1 CPT: inactive; miR-21 reporter: inactive; uPA generation: inactive

What do the screens show for `O=S(=O)(c1ccc(Cl)cc1)N1CCN(c2ncnc3sccc23)CC1`?
TDP1 block: inactive; DT40 TDP1 no CPT: 5.8µM; DT40 TDP1 CPT: 6.51µM; uPA generation: inconclusive

How did COC(=O)c1ccc(C(NC(=O)OCc2ccccc2)/C(F)=C/[C@@H](C)C(=O)N[C@@H](CO)Cc2ccccc2)cc1 (stereo partly drawn) do in these assays?
TDP1 block: inactive

Results for O=Cc1ccc(OC(=O)c2cc(Cl)nc3ccccc23)cc1 ?
TDP1 block: inactive; DT40 TDP1 no CPT: 20.6µM; DT40 TDP1 CPT: inconclusive; miR-21 reporter: inactive; uPA generation: inactive

Results for CCN1CCN(CCOc2ccc(Br)cc2C)CC1 ?
DT40 TDP1 no CPT: inconclusive; DT40 TDP1 CPT: inconclusive; miR-21 reporter: inactive; uPA generation: inactive

Results for O=C(NCCc1cccc(F)c1)C1CCN(S(=O)(=O)c2ccccc2)CC1 ?
DT40 TDP1 no CPT: inactive; DT40 TDP1 CPT: inactive; miR-21 reporter: inactive; uPA generation: inactive
